What was measured:
EGFR [1] = target: T1, EGFR (Homo sapiens (Human), UniProt P00533); experiment: HTRF KinEASE-TK kinase assay, EGFR; format: biochemical; details: 3 h preincubation
EGFR [2] = target: T1, EGFR; experiment: A549 cell lysis and immunoassay, phospho-EGFR (Y1068) inhibition; details: A549 cells
EGFR [3] = target: T1, EGFR; experiment: A549 cell lysis and immunoassay, total EGFR degradation; details: A549 cells
BTK [4] = target: T2, BTK (Homo sapiens (Human), UniProt Q06187); experiment: HTRF KinEASE-TK kinase assay, BTK; format: biochemical; details: 3 h preincubation
BTK [5] = target: T2, BTK; experiment: Ramos RA1 cell lysis and immunoassay, phospho-BTK (Y223) inhibition; details: RAMOS cells, compound concentration 1 μM
BTK [6] = target: T2, BTK; experiment: Ramos RA1 cell lysis and immunoassay, total BTK degradation; details: RAMOS cells
BMX = BMX (Homo sapiens (Human), UniProt P51813); experiment: HTRF KinEASE-TK kinase assay, BMX; format: biochemical
Method: (§1) Kinase activity was monitored using a HTRF® KinEASE-TK kit from Cisbio (62TK0PEC). […] BMX was purchased from Promega. 0.333 ng/ul BMX (3.03 nM) was preincubated in the absence or presence of inhibitor at room temperature for 3 hours. The reaction with substrate was then initiated by adding biotinylated substrate and ATP. […] Reaction was terminated by adding 31.25 nM SA-XL665 and 100 fold diluted europium labelled antibody (Eu-Ab), diluted in 1× detection buffer that contained EDTA. After 60 min of incubation, the fluorescence emission was measured at 620 nm and 665 nm. The ratio of Em 665 nm to Em 620 nm was proportional to the amount of substrate phosphorylated by the kinase. […] The top 13 compounds together with known inhibitor Ibrutinib were further selected for dose response analysis where compounds were tested from final concentrations ranging from 24 μM to 25 uM.

The chains behind the UniProt entries cited, without tags or fusion partners. Residues count along the entry.
UniProt P00533, 25-1210 limits assumed: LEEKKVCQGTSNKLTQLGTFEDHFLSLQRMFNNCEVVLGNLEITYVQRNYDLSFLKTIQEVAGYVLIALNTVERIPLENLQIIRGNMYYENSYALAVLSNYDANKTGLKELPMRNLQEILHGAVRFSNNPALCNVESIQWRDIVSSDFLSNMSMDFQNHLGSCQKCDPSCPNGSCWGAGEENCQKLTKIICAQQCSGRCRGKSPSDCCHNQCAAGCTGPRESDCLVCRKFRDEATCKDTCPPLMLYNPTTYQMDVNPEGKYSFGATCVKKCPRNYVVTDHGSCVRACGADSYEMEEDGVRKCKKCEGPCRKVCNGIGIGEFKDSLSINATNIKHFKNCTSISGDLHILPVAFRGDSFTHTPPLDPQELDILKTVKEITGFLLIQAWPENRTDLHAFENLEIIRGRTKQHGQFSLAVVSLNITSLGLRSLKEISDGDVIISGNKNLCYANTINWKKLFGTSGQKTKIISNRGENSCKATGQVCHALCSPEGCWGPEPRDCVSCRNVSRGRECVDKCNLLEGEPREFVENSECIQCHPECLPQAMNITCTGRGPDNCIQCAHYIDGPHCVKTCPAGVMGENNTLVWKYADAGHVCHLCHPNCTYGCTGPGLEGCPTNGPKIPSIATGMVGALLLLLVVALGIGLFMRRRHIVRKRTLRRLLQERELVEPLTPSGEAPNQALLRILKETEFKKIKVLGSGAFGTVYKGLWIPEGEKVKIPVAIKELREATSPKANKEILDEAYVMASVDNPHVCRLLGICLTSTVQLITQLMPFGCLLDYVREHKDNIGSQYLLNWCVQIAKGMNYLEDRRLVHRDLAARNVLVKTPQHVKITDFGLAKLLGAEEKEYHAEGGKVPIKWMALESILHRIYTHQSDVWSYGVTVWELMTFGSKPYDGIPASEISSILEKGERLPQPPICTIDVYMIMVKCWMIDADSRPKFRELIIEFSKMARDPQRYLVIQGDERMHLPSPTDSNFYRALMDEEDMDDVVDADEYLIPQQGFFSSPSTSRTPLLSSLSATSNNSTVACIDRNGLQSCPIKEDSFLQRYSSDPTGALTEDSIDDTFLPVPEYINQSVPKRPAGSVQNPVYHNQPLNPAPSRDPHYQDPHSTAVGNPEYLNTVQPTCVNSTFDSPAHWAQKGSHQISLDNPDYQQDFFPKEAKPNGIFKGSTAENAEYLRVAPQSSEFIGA
UniProt Q06187, 2-659 limits assumed: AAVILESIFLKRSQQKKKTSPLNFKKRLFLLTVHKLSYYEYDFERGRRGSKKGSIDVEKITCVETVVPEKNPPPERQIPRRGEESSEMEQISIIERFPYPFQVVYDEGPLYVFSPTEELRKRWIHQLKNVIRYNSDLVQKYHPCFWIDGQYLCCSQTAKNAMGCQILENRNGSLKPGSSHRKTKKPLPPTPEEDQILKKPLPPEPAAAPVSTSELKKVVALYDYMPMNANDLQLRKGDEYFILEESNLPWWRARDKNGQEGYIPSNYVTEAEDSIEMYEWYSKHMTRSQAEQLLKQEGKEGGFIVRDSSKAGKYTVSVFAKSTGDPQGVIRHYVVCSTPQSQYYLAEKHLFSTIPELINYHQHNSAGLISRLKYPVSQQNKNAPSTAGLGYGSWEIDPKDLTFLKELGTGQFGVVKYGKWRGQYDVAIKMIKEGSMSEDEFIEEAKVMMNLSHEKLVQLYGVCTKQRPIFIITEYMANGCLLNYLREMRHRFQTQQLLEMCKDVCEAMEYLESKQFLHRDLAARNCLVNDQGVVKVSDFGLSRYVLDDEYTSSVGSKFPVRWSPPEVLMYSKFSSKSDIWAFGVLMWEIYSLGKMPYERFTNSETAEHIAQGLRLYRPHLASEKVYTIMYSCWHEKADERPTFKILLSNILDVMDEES
UniProt P51813, whole entry: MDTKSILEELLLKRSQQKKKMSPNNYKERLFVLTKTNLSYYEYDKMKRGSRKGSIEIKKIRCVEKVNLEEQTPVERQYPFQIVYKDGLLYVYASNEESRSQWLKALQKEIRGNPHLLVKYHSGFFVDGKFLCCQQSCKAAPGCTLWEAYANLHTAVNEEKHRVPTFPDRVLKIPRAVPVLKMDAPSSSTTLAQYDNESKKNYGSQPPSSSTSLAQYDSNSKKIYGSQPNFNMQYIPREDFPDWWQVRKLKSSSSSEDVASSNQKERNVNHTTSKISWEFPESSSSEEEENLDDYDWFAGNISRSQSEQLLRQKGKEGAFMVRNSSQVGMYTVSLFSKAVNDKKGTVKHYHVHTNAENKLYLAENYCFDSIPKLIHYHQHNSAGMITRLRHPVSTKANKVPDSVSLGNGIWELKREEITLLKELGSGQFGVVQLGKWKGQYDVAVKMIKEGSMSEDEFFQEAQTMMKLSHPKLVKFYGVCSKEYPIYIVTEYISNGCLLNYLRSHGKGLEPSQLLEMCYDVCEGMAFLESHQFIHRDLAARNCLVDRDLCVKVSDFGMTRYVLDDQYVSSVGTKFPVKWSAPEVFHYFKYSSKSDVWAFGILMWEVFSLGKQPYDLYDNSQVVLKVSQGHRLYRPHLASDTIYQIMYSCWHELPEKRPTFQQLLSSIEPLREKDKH
UniProt P52333, 781-1124 limits assumed: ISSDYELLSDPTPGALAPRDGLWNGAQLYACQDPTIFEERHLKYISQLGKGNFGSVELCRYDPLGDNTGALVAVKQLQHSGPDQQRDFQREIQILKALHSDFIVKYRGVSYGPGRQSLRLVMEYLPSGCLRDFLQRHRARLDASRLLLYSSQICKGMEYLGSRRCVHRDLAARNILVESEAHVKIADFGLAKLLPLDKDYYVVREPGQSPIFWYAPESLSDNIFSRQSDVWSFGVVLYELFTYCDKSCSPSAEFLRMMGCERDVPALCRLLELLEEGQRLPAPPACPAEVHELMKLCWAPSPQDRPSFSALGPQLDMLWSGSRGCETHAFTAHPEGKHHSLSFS
UniProt P22455, 22-802 limits assumed: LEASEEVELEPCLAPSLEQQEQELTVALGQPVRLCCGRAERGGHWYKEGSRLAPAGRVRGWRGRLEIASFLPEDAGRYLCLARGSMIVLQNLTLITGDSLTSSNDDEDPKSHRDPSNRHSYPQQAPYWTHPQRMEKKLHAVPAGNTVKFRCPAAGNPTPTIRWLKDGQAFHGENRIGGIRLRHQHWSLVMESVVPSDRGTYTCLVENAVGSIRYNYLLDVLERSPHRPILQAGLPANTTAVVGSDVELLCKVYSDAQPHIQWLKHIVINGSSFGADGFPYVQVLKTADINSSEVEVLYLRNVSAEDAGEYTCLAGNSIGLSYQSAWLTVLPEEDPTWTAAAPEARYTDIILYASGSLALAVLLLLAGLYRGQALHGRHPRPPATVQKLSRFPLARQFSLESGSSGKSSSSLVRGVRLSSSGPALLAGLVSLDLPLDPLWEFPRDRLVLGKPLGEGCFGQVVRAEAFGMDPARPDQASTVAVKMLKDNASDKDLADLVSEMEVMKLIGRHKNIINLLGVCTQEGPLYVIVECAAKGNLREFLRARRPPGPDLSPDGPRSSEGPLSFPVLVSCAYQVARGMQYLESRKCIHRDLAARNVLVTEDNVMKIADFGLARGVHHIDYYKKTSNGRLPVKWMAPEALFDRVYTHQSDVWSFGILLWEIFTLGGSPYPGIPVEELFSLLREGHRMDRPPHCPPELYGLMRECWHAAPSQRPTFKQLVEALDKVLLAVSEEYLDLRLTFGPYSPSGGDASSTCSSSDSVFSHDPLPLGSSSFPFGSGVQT

JAK3 = JAK3 (Homo sapiens (Human), UniProt P52333); experiment: HTRF KinEASE-TK kinase assay, JAK3; format: biochemical
Method: as §1, with “JAK-3” for “BMX”, “0.0133” for “0.333”, “JAK3 (0.21” for “BMX (3.03”, “Reaction” for “The reaction”, “The reaction” for “Reaction”

FGFR4 = FGFR4 (Homo sapiens (Human), UniProt P22455); experiment: HTRF KinEASE-TK kinase assay, FGFR4; format: biochemical
Method: as §1, with “FGFR-4” for “BMX”, “FGFR4 (5.12” for “BMX (3.03”, “Reaction” for “The reaction”, “The reaction” for “Reaction”

COCCOc1ccc(Nc2ncc(F)c(Nc3cccc(OCc4c(F)c(F)c(F)c(F)c4S(C)(=O)=O)c3)n2)cc1
% EGFR Remaining activity vs DMSO (1 μM, 3 h) (EGFR [1]; 1 μM compound): A (>90%) | % EGFR Remaining activity vs DMSO (10 μM, 3 h) (EGFR [1]; 10 μM compound): A (>90%) | pEGFR inhibition (A549, 1 μM, 24 h) (EGFR [2]; 1 μM): X | pEGFR inhibition (A549, compound concentration, 24 h) (EGFR [2]; compound concentration 10 μM): X | EGFR degradation (A549, 1 μM, 24 h) (EGFR [3]; 1 μM, 24 h): Y | EGFR degradation (A549, compound concentration, 24 h) (EGFR [3]; compound concentration 10, 24 h): Y | % BTK Remaining activity vs DMSO (1 μM, 3 h) (BTK [4]; 1 μM compound): C (<50%) | % BTK Remaining activity vs DMSO (10 μM, 3 h) (BTK [4]; 10 μM compound): C (<50%) | pBTK inhibition (RAMOS, 24 h) (BTK [5]): X | % BTK degradation (RAMOS, 1 mM, 24 h) (BTK [6]): Y | BMX - 1 uM % remaining (BMX; 1 uM compound, 3 h preincubation): C (<50%) | BMX - 10 uM % remaining (BMX; 10 uM compound, 3 h preincubation): C (<50%) | IC50 (BMX; read-out: BMX IC50, dose response): < 1000 nM | % JAK3 Remaining activity vs DMSO (1 μM, 3 h) (JAK3; 1 μM): B (50-90%) | % JAK3 Remaining activity vs DMSO (10 μM, 3 h) (JAK3; 10 μM): C (<50%) | % FGFR4 Remaining activity vs DMSO (1 μM, 3 h) (FGFR4; 1 μM): B (50-90%) | % FGFR4 Remaining activity vs DMSO (10 μM, 3 h) (FGFR4; 10 μM): B (50-90%)

Reference: patent US20240018153A1, “BENZENESULFONAMIDE DERIVATIVES AND USES THEREOF” (2692372 ONTARIO, INC., priority 2020, published 2024)
